For one molecule, IC50 results are on record in ChEMBL document CHEMBL1152084 (Bioorg Med Chem Lett, 1997).

Protein sequences, listed by entry. Tags and fused reporters are not part of them.
UniProt Q02750, whole entry: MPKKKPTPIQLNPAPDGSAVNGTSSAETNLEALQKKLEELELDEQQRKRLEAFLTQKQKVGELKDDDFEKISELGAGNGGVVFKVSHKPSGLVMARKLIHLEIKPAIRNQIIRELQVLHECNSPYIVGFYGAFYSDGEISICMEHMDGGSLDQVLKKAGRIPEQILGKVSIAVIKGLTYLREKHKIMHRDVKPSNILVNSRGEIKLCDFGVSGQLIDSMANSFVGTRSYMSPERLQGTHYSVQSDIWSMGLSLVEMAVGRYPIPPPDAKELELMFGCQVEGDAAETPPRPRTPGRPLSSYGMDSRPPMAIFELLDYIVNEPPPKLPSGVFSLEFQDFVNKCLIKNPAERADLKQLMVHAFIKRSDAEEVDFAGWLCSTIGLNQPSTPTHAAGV

In this assay the target is Dual specificity mitogen-activated protein kinase kinase 1 (Homo sapiens, UniProt Q02750). The experiment in a line: Inhibition of MAPKK.

Each structure is given as a SMILES string.

By IC50 is commonly meant the midpoint of a concentration-inhibition curve. Read a low IC50 as greater potency in that assay. `COc1ccc(Oc2ccnc3cc(OC)c(OC)cc23)cc1OC` showed an IC50 above 10 µM.
